Experimental data as given in patent US20240400553A1, “AMINE BASED MATRIPTASE 2 INHIBITORS AND USES THEREOF” (Disc Medicine, Inc., priority 2023, published 2024).
pKi: −log10 of the molar value.

Sequences of proteins named here, by UniProt entry; tags and fusion partners are left off.
UniProt Q8IU80, whole entry: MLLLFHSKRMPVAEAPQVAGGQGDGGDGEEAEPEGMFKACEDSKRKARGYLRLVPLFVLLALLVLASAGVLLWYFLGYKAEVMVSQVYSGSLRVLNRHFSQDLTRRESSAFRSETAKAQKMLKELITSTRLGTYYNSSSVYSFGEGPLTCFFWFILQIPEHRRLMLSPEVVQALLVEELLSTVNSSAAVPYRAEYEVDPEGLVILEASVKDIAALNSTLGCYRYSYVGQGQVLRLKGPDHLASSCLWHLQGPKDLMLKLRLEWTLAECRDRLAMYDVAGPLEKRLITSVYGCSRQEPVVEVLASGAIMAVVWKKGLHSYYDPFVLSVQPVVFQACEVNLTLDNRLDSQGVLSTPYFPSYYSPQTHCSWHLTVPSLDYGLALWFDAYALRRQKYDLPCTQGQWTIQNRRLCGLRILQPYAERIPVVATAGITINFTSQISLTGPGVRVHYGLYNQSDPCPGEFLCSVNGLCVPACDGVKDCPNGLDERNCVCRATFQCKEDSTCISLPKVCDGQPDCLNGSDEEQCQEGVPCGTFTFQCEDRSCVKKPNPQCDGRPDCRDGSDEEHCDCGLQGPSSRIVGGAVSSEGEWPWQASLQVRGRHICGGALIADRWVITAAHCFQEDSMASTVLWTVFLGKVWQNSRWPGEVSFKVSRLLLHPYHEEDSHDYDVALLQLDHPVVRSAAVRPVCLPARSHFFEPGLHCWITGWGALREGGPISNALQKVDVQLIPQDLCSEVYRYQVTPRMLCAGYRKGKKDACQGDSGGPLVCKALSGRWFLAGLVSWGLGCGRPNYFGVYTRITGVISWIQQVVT

Target: Human Recombinant Matriptase 2 (Homo sapiens, UniProt Q8IU80)
Assay: Matriptase 2 inhibition, fluorescence based assay (Method I)
Settings: read-out: Mat-2 Ki; Table A; Ki of Matriptase-2 given as class symbols
Protocol: • Method I: Test compounds were evaluated for their potential to inhibit Human Recombinant Matriptase 2 (in-house) using fluorescence based assay. The concentration of Recombinant Matriptase 2 and the substrate used in the assay was: 3.5 nM (In-house Matriptase 2) and 62 μM (Boc-Gln-Ala-Arg-7-amido-4-methyl coumarin hydrobromide −Cat log: I-1550 from Bachem) respectively. The assay buffer used was 50 mM TRIS pH 7.5, 150 mM NaCl, 0.01% Gelatin TCL059 Himedia). The assay was performed using 384 well black flat bottom plate from grenier (Cat log: 781076) at 25° C. The enzyme and compound were preincubated for 30 mins, the plate was read at 60 mins after substrate addition at wavelength Ex: 360/Em: 480 nm. The final assay volume was 20 μl. A stock solution of compounds was initially prepared in DMSO and appropriate dilutions were made and IC50 was determined for all the compounds (final DMSO conc in the assay was 1%). All the measurements were carried out using the Spectramax M5, Molecular devices.
To determine Ki values, dose response curves were generated by plotting percentage inhibition as a function of inhibitor concentration and the data was fitted to sigmoidal non-linear regression equation (variable slope) using Graph Pad prism software V8.

Compound `NCc1ccc2cc(C(=O)N[C@H]3CC[C@H](N)CC3)n(Cc3cccc4ccccc34)c2n1` has a pKi of 5.52 to 6.30.
